Values of other authors as cited in US8053470B2, “Process for the preparation of polynuclear ferric hydroxide-saccaride complexes” (Chongqing Pharmaceutical Research Institute Co., Ltd., priority 2005, dated 2011).

System: patients
Details: cited from earlier work

iron dextran
patients died of allergic responses (1991-1999): more than 30 patients | dosage-independent allergic response (human, in vivo): 0.7%-1%
